# US11732286B2, “T5 exonuclease-based method to identify DNA topoisomerase inhibitors” (The Florida International University Board of Trustees, priority 2020, dated 2023)
# Protein sequences, listed by entry. Tags and fused reporters are not part of them. Lines headed by an entry give the natural chain unless they say otherwise; changes in a name come on top.
# UniProt P9WG49: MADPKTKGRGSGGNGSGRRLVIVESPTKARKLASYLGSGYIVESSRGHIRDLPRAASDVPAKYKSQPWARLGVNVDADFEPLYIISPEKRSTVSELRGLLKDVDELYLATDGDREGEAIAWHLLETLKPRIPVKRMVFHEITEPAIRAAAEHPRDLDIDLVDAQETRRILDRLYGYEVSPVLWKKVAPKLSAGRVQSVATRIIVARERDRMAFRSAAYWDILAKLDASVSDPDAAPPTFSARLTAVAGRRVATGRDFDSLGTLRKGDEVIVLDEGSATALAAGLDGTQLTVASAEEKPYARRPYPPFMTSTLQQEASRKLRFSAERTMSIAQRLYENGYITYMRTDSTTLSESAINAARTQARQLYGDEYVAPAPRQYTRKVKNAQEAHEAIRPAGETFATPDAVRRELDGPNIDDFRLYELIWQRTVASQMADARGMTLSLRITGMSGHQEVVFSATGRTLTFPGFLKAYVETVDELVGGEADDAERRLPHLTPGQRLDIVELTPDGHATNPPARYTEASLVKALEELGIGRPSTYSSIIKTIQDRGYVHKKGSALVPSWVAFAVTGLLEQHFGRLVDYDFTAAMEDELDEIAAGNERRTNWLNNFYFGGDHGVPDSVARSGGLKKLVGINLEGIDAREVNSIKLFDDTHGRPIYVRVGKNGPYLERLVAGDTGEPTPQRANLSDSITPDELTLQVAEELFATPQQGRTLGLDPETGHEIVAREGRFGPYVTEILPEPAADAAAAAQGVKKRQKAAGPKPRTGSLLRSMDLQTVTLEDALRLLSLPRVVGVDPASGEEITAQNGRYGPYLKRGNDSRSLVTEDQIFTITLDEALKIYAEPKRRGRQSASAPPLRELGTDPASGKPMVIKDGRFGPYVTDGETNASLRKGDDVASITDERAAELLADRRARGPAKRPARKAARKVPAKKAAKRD
# Target: Mtb DNA topoisomerase I (Mycobacterium tuberculosis, UniProt P9WG49)
# Format: biochemical
compound,measurement,value
NCCCC[C@H](N)C(=O)O [L-lysine],"fluorescence, HTS screening of 50-compound library for Mtb DNA topoisomerase 1 inhibitors",1246
